Measured values from patent US12617776B2, “Stable salt and crystal forms of 2-[3-({1-[2-(dimethylamino)ethyl]-2-(2,2-dimethylpropyl)-1H-1,3-benzodiazol-5-yl}sulfonyl)azetidin-1-yl]ethan-1-ol” (priority 2020, dated 2026).

What was measured:
[1] = for form after humidity stress (XRPD): 7 days
[2] = Vapor stress of crystalline and amorphous AAT-730 HCl salt (Methods 5-7, 5-8); assay type: physicochemical
[3] = Aw greater than or equal to 0.6
[4] = Humidity stress of possible salts at 40° C./75% RH (Method 3-8); assay type: physicochemical; conditions: 1 week

## CN(C)CCn1c(CC(C)(C)C)nc2cc(S(=O)(=O)C3CN(CCO)C3)ccc21 [AAT-730 HCl salt Pattern 1]
[1]; 98% RH
  form after humidity stress (XRPD): remained as Pattern 1
[1]; HCl salt input Pattern 1, 23% RH stress, sample TW-0012E-013-01
  XRPD: Pattern 2
[1]; HCl salt input Pattern 1, 75% RH stress, sample TW-0012E-013-02
  XRPD: Pattern 2
[1]; HCl salt input Pattern 1, 98% RH stress, sample TW-0012E-013-03
  XRPD: Pattern 1
[1]; less than or equal to 75% RH
  form after humidity stress (XRPD): converted to Pattern 2
HCl salt input Pattern 1, freeze drying, water, sample TW-0012E-011-01
  XRPD: Pattern 4
HCl salt input Pattern 1, planetary milling, Cyclohexane, sample TW0012E-017-04
  XRPD: Disordered Pattern 1
HCl salt input Pattern 1, planetary milling, DCM, sample TW0012E-017-05
  XRPD: Pattern 1
HCl salt input Pattern 1, planetary milling, DIPE, sample TW0012E-017-07
  XRPD: Disordered Pattern 1
HCl salt input Pattern 1, planetary milling, EtOAc, sample TW0012E-017-09
  XRPD: Pattern 1
HCl salt input Pattern 1, planetary milling, EtOH, sample TW0012E-017-08
  XRPD: Pattern 1
HCl salt input Pattern 1, planetary milling, IPA, sample TW0012E-017-13
  XRPD: Pattern 1
HCl salt input Pattern 1, planetary milling, MIBK, sample TW0012E-017-12
  XRPD: Pattern 1
HCl salt input Pattern 1, planetary milling, acetone, sample TW0012E-017-01
  XRPD: Disordered Pattern 1
HCl salt input Pattern 1, planetary milling, dioxane, sample TW0012E-017-06
  XRPD: Pattern 1
HCl salt input Pattern 1, planetary milling, heptane, sample TW0012E-017-10
  XRPD: Pattern 1
HCl salt input Pattern 1, planetary milling, i-PrOAc, sample TW0012E-017-14
  XRPD: Pattern 1
HCl salt input Pattern 1, planetary milling, no solvent, sample TW0012E-017-16
  XRPD: Disordered Pattern 1
HCl salt input Pattern 1, planetary milling, toluene, sample TW0012E-017-15
  XRPD: Pattern 1
HCl salt, crash precipitation, water, anti-solvent IPA, sample TW-0012E-009-05
  XRPD: Pattern 3
HCl salt, crash precipitation, water, anti-solvent MeOH, sample TW-0012E-009-04
  XRPD: Pattern 4
HCl salt, slow cooling, MeOH, sample TW-0012E-016-01
  XRPD: Pattern 1
HCl salt, slow cooling, THF/water (13/1, Aw at most 0.9), sample TW-0012E-016-03
  XRPD: Pattern 1
HCl salt, slow evaporation, EtOH/water (50/50), sample TW-0012E-008-03
  XRPD: Pattern 4
HCl salt, slurry, ACN, 5° C., 5 days, sample TW-0012E-004-02
  XRPD: Pattern 1
HCl salt, slurry, ACN, 20° C., 5 days, sample TW-0012E-005-02
  XRPD: Pattern 2
HCl salt, slurry, ACN, 50° C., 7 days, sample TW-0012E-006-02
  XRPD: Pattern 2
HCl salt, slurry, DCM, 5° C., 5 days, sample TW-0012E-004-03
  XRPD: Pattern 1
HCl salt, slurry, DCM, 20° C., 5 days, sample TW-0012E-005-03
  XRPD: Pattern 2
HCl salt, slurry, DCM, 40° C., 5 days, sample TW-0012E-003-03
  XRPD: Pattern 1
HCl salt, slurry, DMSO/water (80/20, Aw at most 0.27), 5° C., 5 days, sample TW-0012E-004-06
  XRPD: Pattern 1
HCl salt, slurry, DMSO/water (80/20, Aw at most 0.27), 20° C., 5 days, sample TW-0012E-005-06
  XRPD: Pattern 1
HCl salt, slurry, EtOH, 5° C., 5 days, sample TW-0012E-004-04
  XRPD: Pattern 1
HCl salt, slurry, EtOH, 20° C., 5 days, sample TW-0012E-005-04
  XRPD: Pattern 2
HCl salt, slurry, EtOH, 50° C., 7 days, sample TW-0012E-006-04
  XRPD: Pattern 2
HCl salt, slurry, THF, 5° C., 5 days, sample TW-0012E-004-05
  XRPD: Pattern 2
HCl salt, slurry, THF, 20° C., 5 days, sample TW-0012E-005-05
  XRPD: Pattern 2
HCl salt, slurry, THF, 50° C., 7 days, sample TW-0012E-006-05
  XRPD: Pattern 2
HCl salt, slurry, THF/water (13/1, Aw at most 0.9), 5° C., 5 days, sample TW-0012E-004-08
  XRPD: Pattern 1
HCl salt, slurry, THF/water (13/1, Aw at most 0.9), 20° C., 5 days, sample TW-0012E-005-08
  XRPD: Pattern 1
HCl salt, slurry, acetone, 5° C., 5 days, sample TW-0012E-004-01
  XRPD: Pattern 1
HCl salt, slurry, acetone, 20° C., 5 days, sample TW-0012E-005-01
  XRPD: Pattern 2
HCl salt, slurry, acetone, 50° C., 7 days, sample TW-0012E-006-01
  XRPD: Pattern 2
HCl salt, slurry, acetone/water (20/1, Aw at most 0.6), 5° C., 5 days, sample TW-0012E-004-07
  XRPD: Pattern 2
HCl salt, slurry, acetone/water (20/1, Aw at most 0.6), 20° C., 5 days, sample TW-0012E-005-07
  XRPD: Pattern 2
HCl salt, sonication of paste, ACN, sample TW-0012E-010-02
  XRPD: Pattern 2
HCl salt, sonication of paste, DCM, sample TW-0012E-010-03
  XRPD: Pattern 2
HCl salt, sonication of paste, EtOH, sample TW-0012E-010-04
  XRPD: Pattern 2
HCl salt, sonication of paste, MeOH, sample TW-0012E-010-08
  XRPD: Pattern 1
HCl salt, sonication of paste, THF, sample TW-0012E-010-05
  XRPD: Pattern 2
HCl salt, sonication of paste, acetone, sample TW-0012E-010-01
  XRPD: Pattern 2
HCl salt, sonication of paste, acetone/water (20/1, Aw at most 0.6), sample TW-0012E-010-07
  XRPD: Pattern 1
HCl salt, temperature cycling, 1-Butanol, sample TW-0012E-015-01
  XRPD: Pattern 2
HCl salt, temperature cycling, ACN, sample TW-0012E-003-02
  XRPD: Pattern 1
HCl salt, temperature cycling, DIPE, sample TW-0012E-015-03
  XRPD: Pattern 2
HCl salt, temperature cycling, Dioxane, sample TW-0012E-015-09
  XRPD: Pattern 2
HCl salt, temperature cycling, EtOH, sample TW-0012E-003-04
  XRPD: Pattern 1
HCl salt, temperature cycling, EtOH/water (50/50), sample TW-0012E-003-08
  XRPD: Pattern 1
HCl salt, temperature cycling, IPA, sample TW-0012E-015-08
  XRPD: Pattern 2
HCl salt, temperature cycling, MEK, sample TW-0012E-015-05
  XRPD: Pattern 2
HCl salt, temperature cycling, MIBK, sample TW-0012E-015-06
  XRPD: Pattern 2
HCl salt, temperature cycling, THF, sample TW-0012E-003-05
  XRPD: Pattern 1
HCl salt, temperature cycling, THF/water (13/1, Aw at most 0.9), sample TW-0012E-003-07
  XRPD: Pattern 1
HCl salt, temperature cycling, acetone, sample TW-0012E-003-01
  XRPD: Pattern 1
HCl salt, temperature cycling, acetone/water (20/1, Aw at most 0.6), sample TW-0012E-003-06
  XRPD: Pattern 1
HCl salt, temperature cycling, cyclohexane, sample TW-0012E-015-02
  XRPD: Pattern 2
HCl salt, temperature cycling, heptane, sample TW-0012E-015-12
  XRPD: Pattern 2
HCl salt, temperature cycling, i-PrOAc, sample TW-0012E-015-10
  XRPD: Pattern 2
HCl salt, temperature cycling, toluene, sample TW-0012E-015-11
  XRPD: Pattern 2
[2]
  XRPD: Pattern 2
  form after solvent vapor stress (XRPD): converted to Pattern 2
[3]
  stability in water activity experiments: more stable form
[4]; listed as AAT-730 HCl salt Pattern A
  stability to 40° C./75% RH stressing (deliquescence checked visually): stable
[4]; listed as HCl salt Pattern A
  stability to 40° C./75% RH stressing (deliquescence checked visually): crystalline 1:1 salt, physically stable to 40° C./

Where a name gives a salt, the structure may show the parent alone. Read-outs that look alike come from different tables or passages of the source.
